In patent publication US11634412B2, “3-phosphoglycerate dehydrogenase inhibitors and uses thereof” (Raze Therapeutics, Inc., priority 2016, dated 2023):

What was measured:
[1] = biological target: T1, Full length (FL) 3-Phosphoglycerate Dehydrogenase (PHGDH) (Homo sapiens, UniProt O43175); experiment: Full length (FL) PHGDH Diaphorase coupled assay (500 uM NAD); type: biochemical; conditions: full-length PHGDH 5 nM, 30° C. 60 minutes, resorufin fluorescence
T1 construct: Full length (FL) 3-Phosphoglycerate Dehydrogenase (PHGDH) Diaphorase coupled assay (500 uM NAD)
T1 sequence (O43175 1-533): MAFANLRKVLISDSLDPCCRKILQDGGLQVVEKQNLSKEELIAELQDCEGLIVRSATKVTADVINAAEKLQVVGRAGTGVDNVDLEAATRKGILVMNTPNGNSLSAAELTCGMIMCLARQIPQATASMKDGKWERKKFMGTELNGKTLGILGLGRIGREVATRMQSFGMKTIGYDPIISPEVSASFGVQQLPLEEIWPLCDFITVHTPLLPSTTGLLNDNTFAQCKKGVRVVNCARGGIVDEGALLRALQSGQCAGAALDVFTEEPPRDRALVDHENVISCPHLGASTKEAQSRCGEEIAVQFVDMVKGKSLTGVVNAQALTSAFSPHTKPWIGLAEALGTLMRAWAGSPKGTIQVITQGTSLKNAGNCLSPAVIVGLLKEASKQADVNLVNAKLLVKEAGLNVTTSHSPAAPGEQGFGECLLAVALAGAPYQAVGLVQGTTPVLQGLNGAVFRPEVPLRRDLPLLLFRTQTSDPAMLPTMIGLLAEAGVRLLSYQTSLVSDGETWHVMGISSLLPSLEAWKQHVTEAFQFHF

[2] = biological target: T1, Full length (FL) 3-Phosphoglycerate Dehydrogenase (PHGDH); experiment: Full length (FL) PHGDH Diaphorase coupled assay (20 uM NAD); type: biochemical; conditions: full-length PHGDH 10 nM, 30° C. 60 minutes, resorufin fluorescence

Compound	IC50 [1] [nM]	IC50 [2] [nM]
Cn1c(C(=O)NC2(c3ccc(CC(=O)O)cc3)COC2)cc2c(Cl)c(Cl)ccc21 [I-112 e159, 2-(4-(3-(4,5-Dichloro-1-methyl-1H-indole-2-carboxamido)oxetan-3-yl)-phenyl)acetic acid]	1 to 1000	
Cn1c(C(=O)NC2(c3ccc(C(=O)O)cc3)COC2)cc2c(Cl)c(Cl)ccc21 (racemic) [I-127 e22]		1 to 1000
